The subject of series [1] is Japanese White strain male rabbits. Nature of the series: Nasal administration of h-PTH (1-34) in rabbits (arterial blood pressure), Example 18. It is filed as in vivo, rabbit. The conditions noted are these: by addition of a water-soluble organic acid as absorption promoter (Table 1). The protocol: (a) Experiment for Nasal Administration of h-PTH (1-34) in Rabbits
Japanese White strain male rabbits (body weight: 3 kg, one group consisting of 5 rabbits) were fasted overnight and then a tube was previously cannulated into one of carotids under anesthetization for.measurement of arterial pressure. The arterial pressure was recorded
through a pressure transducer. The h-PTH (1-34) nasal administration preparation of preparation 9 prepared in Example 18 (10 U/2 mg/kg) was nasally administered to the rabbits under anesthetization. […] For comparison, injection preparation of h-PTH (1-34) (3 U/2 mg/kg) was intravenously administered and similarly blood pressure was measured.

Series [2] has the same test system. Nature of the series: Nasal administration of insulin preparation in rabbits (plasma glucose), Example 14. It is filed as in vivo, rabbit. The conditions noted are these: nasal 5 U/2.1 mg/kg, 30 min-6 h, with D-glucuronic acid, compared with control preparation (FIG. 3).

For “human parathyroid hormone 1-34 [h-PTH (1-34)]”, the “absorption through nasal mucosa” value in series [1] is “efficiently absorbed”.
Regarding porcine insulin sodium salt, the “absorption through the nasal mucosa (decrease of glucose concentration in plasma)” value in series [2] was “more efficiently absorbed”.

Source of the values: patent US5059587A, “Physiologically active peptide composition for nasal administration” (Toyo Jozo Company, Ltd., priority 1987, dated 1991).
